The results in this text go back to PubChem BioAssay AID588819 (The Scripps Research Institute Molecular Screening Center, 2011).

Chains of the proteins cited; added tags and fusions are not shown. Lines headed by an entry give the natural chain unless they say otherwise; changes in a name come on top.
UniProt P11229: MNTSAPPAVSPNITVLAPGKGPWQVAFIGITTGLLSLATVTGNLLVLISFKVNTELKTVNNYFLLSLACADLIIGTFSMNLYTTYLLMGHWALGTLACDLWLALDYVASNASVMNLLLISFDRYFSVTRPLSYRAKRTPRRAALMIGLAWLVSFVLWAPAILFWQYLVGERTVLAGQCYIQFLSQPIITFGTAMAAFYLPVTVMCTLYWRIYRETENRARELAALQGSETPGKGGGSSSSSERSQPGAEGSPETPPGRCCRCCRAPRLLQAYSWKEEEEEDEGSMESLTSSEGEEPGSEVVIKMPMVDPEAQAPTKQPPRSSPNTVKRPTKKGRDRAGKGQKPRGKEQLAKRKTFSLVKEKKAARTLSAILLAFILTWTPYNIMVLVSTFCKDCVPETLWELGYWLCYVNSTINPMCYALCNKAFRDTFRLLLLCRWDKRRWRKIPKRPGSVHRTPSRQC

This is a selection; strong and weak results do not stand in their true shares. Activity calls are given as the source filed them. No stated cut-off is given here; in the data, active means activation above about 19% (passing the limit was not always enough); inactive means the rest.

The assay addresses Muscarinic acetylcholine receptor M1 (Homo sapiens) (UniProt P11229). The experiment in a line: CHRM1 PAMs potentiating acetylcholine calcium signal – CHO-K1 cells, Fluo-8 calcium fluorescence, 1536-well, primary screen (AID 588819). The settings on record: CHO-K1 hM1, Fluo-8 calcium fluorescence, ACh EC20; at 3 µM; active compounds read high; 0% = ACh EC20, 100% = maximal ACh.
Take `NS(=O)(=O)c1cccc(NC(=O)COC(=O)C(O)(c2ccccc2)c2ccccc2)c1`: the activation was inactive: 15.7%.
Consider `Nc1cccc([As](=O)(O)c2ccccc2)c1`, for which the activation is inactive: 0.86%.
Regarding `O=[N+]([O-])c1cc([As](=O)(O)O)ccc1O`, the activation was inactive: -7.73%.
Then `O=P1(Nc2ncccn2)COc2ccccc2OC1`, with inactive: 5.58%; and `Cc1ccc(S(=O)(=O)N(CCCN)CCCc2c(C)nc(N)[nH]c2=O)cc1`, with inactive: 6.02%.
As for `O=C(/C=C/c1ccccc1)OC1CN2CCC1CC2` (stereo not drawn), the activation was inactive: 0.1%.
Take `CCCC1OP(=O)(Nc2ccccc2)OCC1CC` (stereo not drawn): the activation is inactive: -7.78%.
`Cc1nn(-c2ccccc2)c2c1P(=O)(N1CCOCC1)N(C)C(c1ccccc1)=N2` (stereo not drawn): the activation was inactive: 2.43%.
Turning to `CC1CCC(C(C)C)C(OP(=O)(Nc2ccccn2)c2ccccc2)C1` (stereo not drawn), the activation was inactive: 0.27%.
`Cc1ccc(C(=O)OC2CN3CCC2CC3)cc1` (stereo not drawn): the activation was inactive: -6.65%.
`CC1(CBr)Cn2c(nc3ccccc3c2=O)S1` (stereo not drawn): the activation is inactive: 5.68%.
Take `CC(C)/C=N\N=C(\N)N[N+](=O)[O-]`: the activation was inactive: 4.61%.
As to `CN(C(=O)Cc1ccc(Cl)c(Cl)c1)[C@@H]1CCCC[C@H]1N1CCCC1`, the activation was inactive: -1.29%.
As to `COc1ccccc1CNC(=O)COC(=O)C(O)(c1ccccc1)c1ccccc1`, the activation is inactive: 3.58%.
For the compound `O=P1(N(CCCl)CCCl)NCCC(C(F)(F)F)O1` (stereo not drawn), the activation was inactive: 2.89%.
Then `Clc1n[nH]nc1-c1nn[nH][15n]1`, with inactive: 12.6%; and `CC(C)(C)C(=O)NC(Sc1ncccn1)C(Cl)(Cl)Cl` (stereo not drawn), with inactive: 2.58%.
With `CCOP(=O)(Nc1ccc(C)cn1)OCC`, the activation is inactive: 4.61%.
With `CN(CCCl)Cc1cc(Cl)c(NC2=NCCN2)c(Cl)c1`, the activation was inactive: -2.57%.
`O=P1(Nc2ccccn2)COc2ccccc2OC1`: the activation was inactive: 11.5%.
As for `CCC1=CC2Cc3nc4ccc(Cl)cc4c(N)c3C(C1)C2` (stereo not drawn), the activation was inactive: -11.4%.
As to `CCOP(=O)(NC(=NC(C)c1ccccc1)NC(C)c1ccccc1)OCC` (stereo not drawn), the activation is inactive: 7.07%.
As to `CCC(C)N(CC(C)C)C(=S)SC(NC(C)=O)C(Cl)(Cl)Cl` (stereo not drawn), the activation was inactive: 11.6%.
On to `CCOC(=O)c1ccc(NC(=O)C(C)(CCl)SC)cc1` (stereo not drawn), for which the activation was inactive: 9.2%.
Then `O=C(OC1CN2CCC1CC2)c1cccc([N+](=O)[O-])c1` (stereo not drawn), with inactive: -14.1%.
With `CSc1ccc(Nc2c([N+](=O)[O-])cc([N+](=O)[O-])cc2[N+](=O)[O-])cc1`, the activation is inactive: -15.5%.
For `O=C(COc1ccccc1)OC1CN2CCC1CC2` (stereo not drawn), the activation is inactive: -22.7%.
For the compound `O=C(Nc1ccncc1[N+](=O)[O-])c1ccc([N+](=O)[O-])cc1[N+](=O)[O-]`, the activation was inactive: 4.41%.
Consider `O=C(O)C(=O)c1ccc(N(CCCl)CCCl)cc1`, for which the activation is inactive: 3.6%.
Take `COP1(=S)c2c(C)nn(CCC#N)c2N=C(c2ccc(F)cc2)N1C` (stereo not drawn): the activation was inactive: -3.11%.
Consider `COC(=O)C1(C)COP(=O)(N2CCCC2)OC1` (stereo not drawn), for which the activation was inactive: 10.4%.
Consider `O=[N+]([O-])c1ccc(Nc2ccc(Oc3ccc([N+](=O)[O-])cc3[N+](=O)[O-])cc2)c([N+](=O)[O-])c1`, for which the activation was inactive: -2.83%.
Take `O=P(Nc1ccccn1)(c1cccc2ccccc12)c1cccc2ccccc12`: the activation is inactive: 12.1%.
As to `Cc1cc(SC(NC=O)C(Cl)(Cl)Cl)ncn1` (stereo not drawn), the activation is inactive: 17.8%.
Take `CCOC(=O)Nc1cccc([As](=O)(O)O)c1`: the activation was inactive: 18.8%.
For the compound `Cc1cc(SC(NC(=O)c2ccccc2)C(Cl)(Cl)Cl)nc(C(C)C)n1` (stereo not drawn), the activation is inactive: 3.01%.
Take `COP(=O)(OC)N1CC1c1ccccc1` (stereo not drawn): the activation was inactive: 5.22%.
As for `CC1CCNP(=O)(N(CCCl)CCCl)O1` (stereo not drawn), the activation was inactive: -0.17%.
For the compound `C/C=C1/CC(C)C(C)(O)C(=O)OCC2CCN3CCC(OC1=O)C23` (stereo not drawn), the activation is inactive: -26.2%.
Take `CCOC(=O)Nc1ccc([As](=O)(O)O)c(O)c1`: the activation is inactive: 5.57%.
The value for `O=C(O)C(O)c1ccc(N(CCCl)CCCl)cc1` (stereo not drawn) was inactive: 0.22%; that for `CC(C)NC(=O)NP(=O)(Oc1ccccc1)Oc1ccccc1` was inactive: 11.7%.
The value for `O=C(OC1CN2CCC1CC2)c1cccc2[nH]cnc12` (stereo not drawn) was inactive: 11.6%; that for `CCN(CC)C(=S)SC(NC=O)C(Cl)(Cl)Cl` (stereo not drawn) was inactive: -4.2%; that for `O=[N+]([O-])c1cc([N+](=O)[O-])c(-c2ccn[nH]2)s1` was inactive: 0.36%.
Turning to `COC(=O)C1(C)COP(=O)(N2CCCCCC2)OC1` (stereo not drawn), the activation was inactive: 6.3%.
The value for `CC(C)c1ccc(OP(=O)(Nc2ccccn2)Oc2ccccc2F)cc1` (stereo not drawn) was inactive: 9.77%.
As to `ClCCSc1nnc(-c2cccnc2)o1`, the activation was inactive: 9.38%.
For the compound `Cc1ccc2nc3c(c(C)c2c1)CC(C(Cl)Cl)S3` (stereo not drawn), the activation was inactive: 1.76%.
Consider `Cc1ccc(OP(=O)(Nc2ccc([N+](=O)[O-])cn2)Oc2ccc(C)cc2)cc1`, for which the activation was inactive: 8.27%.
Then `CC(Cc1ccc(O)cc1)NCC(O)c1cc(O)cc(O)c1` (stereo not drawn), with inactive: 0.04%; and `C[As](=O)(O)c1cccc(C(=O)O)c1`, with inactive: 2.92%; and `O=[As](O)(c1ccc(O)cc1)c1ccccc1O`, with inactive: 2.81%.
Turning to `O=[N+]([O-])c1ccc(-c2cc([N+](=O)[O-])c(O)c([N+](=O)[O-])c2)cc1`, the activation was inactive: 2.94%.
With `COc1ccc(N/C(=N/P(=O)(N2CCOCC2)N2CCOCC2)N2CCOCC2)cc1`, the activation was inactive: 6.07%.
Regarding `O=[N+]([O-])c1cc(Oc2ccc([N+](=O)[O-])cc2C(F)(F)F)cc([N+](=O)[O-])c1`, the activation was inactive: 0.77%.
Then `COc1ccc2nc(NP(=O)(c3ccccc3)c3ccccc3)sc2c1`, with inactive: -4.26%.
Turning to `COc1cc(I)ccc1[As](=O)(O)O`, the activation was inactive: -1.19%.
As for `O=P1(N(CCCl)CCCl)Nc2ccccc2N1`, the activation is inactive: 4.55%.
On to `O=P1(N(CCCl)CCCl)OCCCN1CCCl` (stereo not drawn), for which the activation is inactive: 2.89%.
The value for `O=C(OC1CN2CCC1CC2)C12CC3CC(CC(C3)C1)C2` (stereo not drawn) was inactive: -20.9%; that for `Cc1cc(=O)[nH]c(N[N+](=O)[O-])n1` was inactive: 16.3%.
The value for `Cc1c2c(nc3ccccc13)SC(C(Cl)Cl)C2` (stereo not drawn) was inactive: 8%.
